Reference: US20200157223A1

The chains behind the UniProt entries cited, without tags or fusion partners. Residues count along the entry.
UniProt P11836, whole entry, chain 1 of 2: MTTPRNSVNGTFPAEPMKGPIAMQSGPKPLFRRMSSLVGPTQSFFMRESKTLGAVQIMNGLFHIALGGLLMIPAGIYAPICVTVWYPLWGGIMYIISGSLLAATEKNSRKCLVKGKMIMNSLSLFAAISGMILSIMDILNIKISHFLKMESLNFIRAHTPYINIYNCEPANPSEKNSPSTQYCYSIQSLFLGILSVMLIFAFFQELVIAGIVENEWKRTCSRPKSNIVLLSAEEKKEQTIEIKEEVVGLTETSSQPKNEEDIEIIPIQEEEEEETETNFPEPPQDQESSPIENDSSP
UniProt Q9NZQ7, 19-290, chain 1 of 2: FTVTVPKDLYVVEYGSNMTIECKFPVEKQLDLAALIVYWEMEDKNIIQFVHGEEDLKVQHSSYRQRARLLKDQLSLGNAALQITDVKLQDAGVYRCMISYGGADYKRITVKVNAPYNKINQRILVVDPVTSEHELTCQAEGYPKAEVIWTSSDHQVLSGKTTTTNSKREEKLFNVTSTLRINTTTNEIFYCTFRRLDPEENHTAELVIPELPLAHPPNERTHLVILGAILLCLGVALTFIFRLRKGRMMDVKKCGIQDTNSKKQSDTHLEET

Tests used:
[1] = target: Raji cells (CD20+CD47) (human) (UniProt P11836); experiment: flow cytometry on Raji cells
[2] = target: NCI-H441 cells (PD-L1+CD47) (human) (UniProt Q9NZQ7); experiment: flow cytometry on IFN-γ-stimulated NCI-H441 cells

Substance	EC50 [1]	Maximum average fluorescence intensity [1]	EC50 [2]	Maximum average fluorescence intensity [2]
Ofa-Fc1-D1-Fc2 (bispecific antibody)	14.1 nM	691000		
Anti-PD-L1(Ate)-Fc1-D1-Fc2 (bispecific antibody)			1.56 nM	157000
